Counter-ions that a name gives are not always drawn.
Columns and labels:
[1] = target: T1, BIR3 domain of human cIAP-1 (Homo sapiens, UniProt Q13490); assay: cIAP-1 in vitro competitive displacement binding assay (fluorescence polarization); conditions: for cIAP1 IC50 or PI μM (PI): PI at 0.012 μM, 180 min, dihydrochloride, 0.012 µM; for inhibition at 0.012 µM: 3 h, read-out: cIAP1 IC50 or PI μM (PI), PI at 0.012 μM
T1 construct: human cIAP-1 (residues 267-363) fused to a GST-tag; GST-tag (cleaved yes); made in house; host or cells: Escherichia coli

Amino acid sequences for entries named in this document (tags omitted). Residues count along the entry.
UniProt Q13490, 267-363: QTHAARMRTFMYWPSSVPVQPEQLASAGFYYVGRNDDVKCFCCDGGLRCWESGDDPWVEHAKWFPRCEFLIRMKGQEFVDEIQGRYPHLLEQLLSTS
UniProt P98170, 252-350: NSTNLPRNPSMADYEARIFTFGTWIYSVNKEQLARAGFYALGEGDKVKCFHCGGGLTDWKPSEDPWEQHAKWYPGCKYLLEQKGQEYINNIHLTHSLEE

[2] = target: T2, BIR3 domain of human XIAP (Homo sapiens, UniProt P98170); assay: XIAP in vitro competitive displacement binding assay (fluorescence polarization); conditions: for Xiap IC50 or PI μM (PI): PI at 0.04 μM, 60 min, dihydrochloride, 0.04 µM
T2 construct: BIR3 domain of human XIAP (residues 252-350) fused to a His-tag; His-tag (cleaved yes); made in house; host or cells: Escherichia coli

Row | Structure (SMILES) | cIAP1 IC50 or PI μM (PI) [1] | Xiap IC50 or PI μM (PI) [2] | inhibition at 0.012 µM [1] | inhibition at 0.04 µM ([2]; 1 h, read-out: Xiap IC50 or PI μM (PI), PI at 0.04 μM)
1 | C[C@@H]1CN(CC(=O)N2CC(C)(C)c3ncc(C(O)c4ccc(F)c(F)c4)cc32)[C@@H](CN2[C@H](C)COC[C@H]2C)CN1 (single isomer, unassigned) [Example 110, (R or S)-1-{6-[(3,4-Difluorophenyl)(hydroxy)meth-yl]-3,3-dimethyl-1H,2H,3H-pyrrolo[3,2-b]pyridin-1-yl}-2-[(2R,5R)-2-{[(3R,5R)-3,5-dimethylmorpholin-4-yl]methyl}-5-methylpiperazin-1-yl]ethan-1-one dihydrochloride] | 99%@0.012 | 39%@0.04 |  | 
2 | C[C@@H]1CN(CC(=O)N2CC(C)(C)c3ncc(C(O)c4ccccc4)cc32)[C@@H](CN2[C@H](C)COC[C@H]2C)CN1 (single isomer, unassigned) [Example 114, 2-[(2R,5R)-2-{[(3R,5R)-3,5-Dimethymorpholin-4-yl]methyl}-5-methylpiperazin-1-yl]-1-{(R or S)-6-[hydroxy(phenyl)methyl]-3,3-dimethyl-1H,2H,3H-pyrrolo[3,2-b]pyridin-1-yl}ethan-1-one dihydrochloride] |  |  | 83% | 82%
3 | C[C@@H]1CN(CC(=O)N2CC(C)(C)c3ncc(C(O)c4ccc(F)cc4F)cc32)[C@@H](CN2[C@H](C)COC[C@H]2C)CN1 (single isomer, unassigned) [Example 104, (R or S)-1-{6-[(2,4-Difluorophenyl)(hydroxy)meth-yl]-3,3-dimethyl-1H,2H,3H-pyrrolo[3,2-b]pyridin-1-yl}-2-[(2R,5R)-2-{[(3R,5R)-3,5-dimethylmorpholin-4-yl]methyl}-5-methylpiperazin-1-yl]ethan-1-one dihydrochloride] | 110%@0.012 | 70%@0.04 |  | 
4 | C[C@@H]1CN(CC(=O)N2CC(C)(C)c3ncc(C(O)c4ccc(F)c(F)c4)cc32)[C@@H](CN2[C@H](C)COC[C@H]2C)CN1 (single isomer, unassigned) [Example 109, (R or S)-1-{6-[(3,4-Difluorophenyl)(hydroxy)meth-yl]-3,3-dimethyl-1H,2H,3H-pyrrolo[3,2-b]pyridin-1-yl}-2-[(2R,5R)-2-{[(3R,5R)-3,5-dimethylmorpholin-4-yl]methyl}-5-methylpiperazin-1-yl]ethan-1-one dihydrochloride] |  | 64%@0.04 | 93% | 
